The results in this text go back to US20260048036A1, “CRYSTALLINE FORMS OF A GLUCOSYLCERAMIDE SYNTHASE INHIBITOR AND USES THEREOF” (ACELINK THERAPEUTICS, INC., priority 2022, published 2026).

By UniProt entry, the sequences of proteins in these tests, tags left out. Where a name states a change or a piece, a line headed by the entry shows the natural chain unless it says otherwise.
UniProt Q16739: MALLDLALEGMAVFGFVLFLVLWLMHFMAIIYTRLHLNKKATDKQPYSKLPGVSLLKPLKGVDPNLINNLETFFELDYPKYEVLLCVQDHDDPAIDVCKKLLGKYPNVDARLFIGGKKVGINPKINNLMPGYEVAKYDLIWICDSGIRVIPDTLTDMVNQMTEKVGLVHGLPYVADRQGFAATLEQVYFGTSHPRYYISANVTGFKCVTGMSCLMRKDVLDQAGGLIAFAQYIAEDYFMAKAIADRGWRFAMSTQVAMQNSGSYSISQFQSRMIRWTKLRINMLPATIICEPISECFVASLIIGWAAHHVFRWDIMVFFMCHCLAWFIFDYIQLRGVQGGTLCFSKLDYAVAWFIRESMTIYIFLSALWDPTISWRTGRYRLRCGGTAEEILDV

Each structure is given as a SMILES string. Numbering of substitutions follows the chain as printed. pIC50: −log10 of the molar value.

The target in test [1] is T1, Glucosylceramide synthase (GCS) (Canis lupus familiaris, UniProt A0A8I3MXG6).
T1 construct: The MDCK, K-562, and L6 cell lines all endogenously express GCS enzyme; host or cells: MDCK (canine kidney) cell lysate
T1 sequence (A0A8I3MXG6 1-394): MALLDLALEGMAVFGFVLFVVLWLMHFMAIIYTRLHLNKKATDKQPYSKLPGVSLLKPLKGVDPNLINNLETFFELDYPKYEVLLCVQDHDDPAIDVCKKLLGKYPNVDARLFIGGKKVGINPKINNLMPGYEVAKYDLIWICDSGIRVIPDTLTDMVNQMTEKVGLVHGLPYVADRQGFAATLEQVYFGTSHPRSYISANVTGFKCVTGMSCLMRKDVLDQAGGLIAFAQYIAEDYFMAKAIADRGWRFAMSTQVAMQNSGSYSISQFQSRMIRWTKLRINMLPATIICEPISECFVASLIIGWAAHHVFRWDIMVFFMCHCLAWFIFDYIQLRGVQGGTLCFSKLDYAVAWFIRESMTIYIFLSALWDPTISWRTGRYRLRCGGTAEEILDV
Briefly: GCS enzymatic assay with MDCK cell lysate. Type of test: biochemical, canine. As to conditions: MDCK cell lysate as source of GCS; C6-NBD-glucosylceramide by LC-MS/MS. The text has this: In this study, the inventors developed a reliable method to monitor GCS catalytic activity using the fluorescent substrate, C6-NBD-ceramide. The reaction product, C6-NBD-glucosylceramide, could then be detected and quantified by LC-MS/MS. The inventors used this method to test and validate the effect of various GCS inhibitors on GCS enzyme activity from different species.
The MDCK, K-562, and L6 cell lines all endogenously express GCS enzyme and were used to test the effect of various GCS inhibitors on enzyme originating from different species. The GCS enzyme activity was detected by using the fluorescent substrate, C6-NBD-ceramide, and monitoring the formation of the fluorescent reaction product, C6-NBD-glucosylceramide. […]
GCS activity was evaluated using a GCS enzyme assay derived from MDCK or L6 cell lysates.
MDCK or L6 cell lysates were prepared using M-PER in the presence of a protease inhibitor cocktail. […] Protein concentration was determined using Pierce BCA protein assay kit. […]
The quantitative analysis of C6-NBD-glucosylceramide was performed on a Shimadzu ultra-fast liquid chromatography coupled with API 4000 mass spectrometer. […]
The C6-NBD-glucosylceramide reading was normalized first by dividing the peak area of C6-NBD-glucosylceramide with the peak area of the internal standard, and then the amount was calculated according to the standard curve generated in the same assay run. […]

Test [2] has as its target T2, Glucosylceramide synthase (GCS) (Homo sapiens, UniProt Q16739).
T2 construct: The MDCK, K-562, and L6 cell lines all endogenously express GCS enzyme; host or cells: K-562 human leukemia cells, live
T2 sequence (Q16739 1-394): T1 sequence (A0A8I3MXG6 1-394) with V20L, S196Y
The test can be described thus: GCS cell-based assay with live K-562 cells. To be noted: C6-NBD-glucosylceramide by LC-MS/MS. The text has this:
The reaction product, C6-NBD-glucosylceramide, could then be detected and quantified by LC-MS/MS. The inventors used this method to test and validate the effect of various GCS inhibitors on GCS enzyme activity from different species.
The GCS enzyme activity was detected by using the fluorescent substrate, C6-NBD-ceramide, and monitoring the formation of the fluorescent reaction product, C6-NBD-glucosylceramide. First, the inventors used cell lysate derived from a canine kidney cell line (MDCK, ATCC Cat #CCL-34™) as the source of GCS and tested the inhibitory activity of several control and test compounds.
The quantitative analysis of C6-NBD-glucosylceramide was performed on a Shimadzu ultra-fast liquid chromatography coupled with API 4000 mass spectrometer. Analyst 1.5 software packages were used to control the LC-MS/MS system, as well as for data acquisition and processing.
The C6-NBD-glucosylceramide reading was normalized first by dividing the peak area of C6-NBD-glucosylceramide with the peak area of the internal standard, and then the amount was calculated according to the standard curve generated in the same assay run. For the cell based assay results, the amount of C6-NBD-glucosylceramide was also normalized by the protein concentration of the cell samples. […]

With `CC(C)(NC(=O)O[C@@H]1CN2CCC1CC2)c1csc(-c2ccc(F)cc2)n1` [Venglustat, reference compound], the pIC50 in test [1] was 7.14; in test [2] it was 6.29.

In general, pIC50 refers to −log10 of the IC50, conventionally taken in molar units. A higher pIC50 goes with a small IC50.
